The chains behind the UniProt entries cited, without tags or fusion partners. Where a name states a change or a piece, a line headed by the entry shows the natural chain unless it says otherwise.
UniProt P17844: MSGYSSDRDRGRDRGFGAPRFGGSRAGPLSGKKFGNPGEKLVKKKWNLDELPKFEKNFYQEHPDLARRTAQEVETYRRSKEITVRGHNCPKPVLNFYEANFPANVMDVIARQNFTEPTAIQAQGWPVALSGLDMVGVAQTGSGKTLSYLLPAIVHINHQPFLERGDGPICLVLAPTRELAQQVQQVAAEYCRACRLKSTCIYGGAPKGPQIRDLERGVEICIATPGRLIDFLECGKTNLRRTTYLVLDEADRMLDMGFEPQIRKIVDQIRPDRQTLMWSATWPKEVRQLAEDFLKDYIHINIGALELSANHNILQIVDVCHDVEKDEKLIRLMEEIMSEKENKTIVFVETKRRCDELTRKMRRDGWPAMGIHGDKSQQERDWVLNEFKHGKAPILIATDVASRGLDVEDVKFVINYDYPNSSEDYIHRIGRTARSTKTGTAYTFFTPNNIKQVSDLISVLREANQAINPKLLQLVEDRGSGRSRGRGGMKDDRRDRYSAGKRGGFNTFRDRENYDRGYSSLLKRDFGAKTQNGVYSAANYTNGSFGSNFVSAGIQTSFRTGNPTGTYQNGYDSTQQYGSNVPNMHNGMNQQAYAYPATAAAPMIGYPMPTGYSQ

In US20250092058A1 (priority 2018, published 2025):

Experiments:
DDX5-blocked Top1 = DDX5-blocked Top1 (Homo sapiens, UniProt P17844); format: biochemical
Method: Experimental condition: Top1 was used for 1 IU; DDX5 was used in 100 nM; and 1 μg supercoiled pRB322 DNA was used.

DDX5 = target: T1, DDX5 (Homo sapiens, UniProt P17844); format: cell-based
T1 construct: endogenous in cells; host or cells: HCT116

Top1 = target: T2, Top1 (Homo sapiens, UniProt P11387); format: biochemical
T2 sequence (P11387 1-765): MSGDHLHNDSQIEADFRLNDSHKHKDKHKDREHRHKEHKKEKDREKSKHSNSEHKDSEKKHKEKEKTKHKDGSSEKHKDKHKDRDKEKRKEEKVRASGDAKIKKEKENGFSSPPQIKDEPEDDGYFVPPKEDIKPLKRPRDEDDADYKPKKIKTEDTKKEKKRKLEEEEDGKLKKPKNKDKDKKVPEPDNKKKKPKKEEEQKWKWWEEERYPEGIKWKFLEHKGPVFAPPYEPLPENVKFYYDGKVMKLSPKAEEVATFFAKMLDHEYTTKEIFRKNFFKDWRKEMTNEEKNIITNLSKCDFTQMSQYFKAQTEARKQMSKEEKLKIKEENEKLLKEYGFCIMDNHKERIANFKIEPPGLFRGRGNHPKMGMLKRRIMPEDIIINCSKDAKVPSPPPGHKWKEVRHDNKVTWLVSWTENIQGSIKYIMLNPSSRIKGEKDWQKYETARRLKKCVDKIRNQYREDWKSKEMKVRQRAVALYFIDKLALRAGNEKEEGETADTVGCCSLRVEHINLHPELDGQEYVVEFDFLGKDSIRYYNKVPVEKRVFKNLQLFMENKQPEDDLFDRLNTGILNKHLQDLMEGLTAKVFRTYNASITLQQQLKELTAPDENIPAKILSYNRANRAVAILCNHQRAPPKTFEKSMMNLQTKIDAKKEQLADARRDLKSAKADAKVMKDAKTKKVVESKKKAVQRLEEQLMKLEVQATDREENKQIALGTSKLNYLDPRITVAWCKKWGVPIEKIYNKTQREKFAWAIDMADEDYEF

HCT116 cells [1] = test system: HCT116 cells
HCT116 cells [2] = test system: HCT116 cells; remark: listed apart in the source
[3] = test system: XIAP, Bcl-2, Bax, γH2AX and Survivin; conditions: 0, 50, 100 nM, 72 hours

CC[C@@]1(O)C(=O)OCc2c1cc1n(c2=O)Cc2c-1nc1cc3c(cc1c2-c1ccc(F)c(OC)c1)OCO3 [Compound 7h]
unblocking of DDX5-blocked Top1 activity (DDX5-blocked Top1): can unblock DDX5-blocked Top1 activity
DDX5 expression (DDX5): able to decrease DDX5 expression
concentrations blocking Top1 nicking SC DNA activity (Top1): could only be blocked by 5 and 50 μM
cell migration (HCT116 cells [1]): concentration-dependent inhibition of HCT116 cell migration
colony formation (HCT116 cells [2]): significantly inhibited the proliferation-induced colony formation
expression of Bax and γH2AX [3]: upregulated
expression of XIAP, Bcl-2 and Survivin [3]: downregulated
